Data published in paper PMC11876601 (Molecular Systems Biology, 2025).
Like-named read-outs stand apart in the source and are kept apart here.

Test system: p-sites in DNA-damaged AsPC-1 cells
Assay: decryptM dose-resolved phosphoproteomics of ATRi in GEM-pre-treated cells
Format: cell-based, human
Settings: for EC50: Homo sapiens
Method: Cell culture medium was replaced 24 h after seeding. […] For time point 0, AsPC-1 cells were treated with a vehicle and lysed immediately. The final DMSO concentration in all experiments was 0.2%.
Briefly, cells were washed twice with PBS and lysed in SDS lysis buffer (2% SDS in 40 mM Tris-HCl, pH 7.6), followed by sonication for 10 min (30 s on/30 s off) using a Bioruptor (Diagenode). For DNA hydrolysis, samples were boiled at 95 °C for 10 min and incubated with 2% trifluoroacetic acid (TFA) for 1 min, before the reaction was quenched using 4% N-methylmorpholine. Lysate was cleared by centrifugation at 11,000 × g for 5 min and protein concentration was determined using the Pierce BCA Protein Assay Kit (Thermo Scientific).
Using 70% ethanol, samples were then precipitated on beads, followed by washing thrice with 80% ethanol and once with 100% acetonitrile. Subsequently, proteins were reduced and alkylated using 10 mM TCEP, 50 mM chloroacetamide, and 2 mM CaCl2 in 100 mM EPPS/NaOH, pH 8.5 for 1 h at 37 °C, followed by tryptic digestion at 37 °C for 16 h. Peptides were acidified with 1% TFA and desalted on Chromabond HLB plates (30 µm particle size, 10 mg capacity, Machery-Nagel), using 0.1% TFA for equilibration and sample loading, and 0.1% TFA in 70% acetonitrile for peptide elution. Recovered peptides were freeze-dried by vacuum-centrifugation and stored at −20 °C.
Depending on the experiment, samples were either labeled with TMT-11plex (decryptM), TMT-10plex (non-decryptM, quadruplicates), or TMTpro reagent (time-series; all Thermo Scientific). Therefore, dried peptides were reconstituted in 15 µl 100 mM EPPS, pH 8.5 and each treatment condition was labeled with one channel of the respective TMT reagent (5 µl of 25 µg/µl reagent, Appendix Tables S4–S6). The reaction was incubated for 1 h at 23 °C and subsequently quenched with 0.4% hydroxylamine. Then, samples were pooled, acidified with 1% formic acid, and freeze-dried by vacuum-centrifugation. Labeled peptide pools were desalted on C18 Sep-Pak cartridges (37–55 µm particle size, 50 mg capacity, Waters), using 0.1% formic acid as equilibration solvent, and 0.1% formic acid in 60% acetonitrile was used as elution solvent. Eluted peptides were freeze-dried and stored at −20 °C until further use.
Basic reversed-phase (bRP) fractionation of peptides was performed on a Vanquish HPLC (Thermo Scientific). In short, dried peptides were reconstituted in 200 µl 25 mM ammonium bicarbonate, pH 8.0 and directly injected onto a Waters BEH130 XBridge C18 column (3.5 µm, 4.6 × 250 mm). […] Using an automated fraction collector, 96 fractions were collected between min 7 and 55 after injection. Fractions were acidified with 1% formic acid and pooled to 48 fractions, before they were freeze-dried and stored at −20 °C.
Immobilized metal ion affinity chromatography (IMAC) enrichment of phosphorylated peptides was performed on the Bravo automated liquid handling platform using AssayMAP Fe(III)-NTA cartridges (Agilent). In brief, the 48 dried peptide fractions were reconstituted in 0.1% TFA in 80% acetonitrile and further pooled to 12 fractions (200 µl final volume per well). The phosphopeptide enrichment protocol embedded in the Agilent AssayMAP Bravo Protein Sample Prep Workbench v2.0 software was run. Thereby, the cartridges were first primed with 150 μl 0.1% TFA in acetonitrile at 300 μl/min, and equilibrated with 150 μl 0.1% TFA in 80% acetonitrile at 10 μl/min. Then, pooled fractions were loaded at 5 µl/min and further washed three times with 150 μl 0.1% TFA in 80% acetonitrile at 50 μl/min. Enriched peptides were eluted with 60 μl 1% ammonium hydroxide at 5 μl/min.

C[C@@H]1COCCN1c1cc(-c2ccnn2C)c2ccnc(-c3ccn[nH]3)c2n1 [Elimusertib]
EC50 (ASPC1, read-out: EC50 of the majority of pSQ/pTQ sites): ~10 nM
EC50 (ASPC1, read-out: median EC50 across all drug-regulated pSQ/pTQ-sites): 10 nM
EC50 (ASPC1, read-out: pEC50, RALY S176 (converted)): 12.9 nM
EC50 (ASPC1, read-out: pEC50 of the majority of pSQ/pTQ sites (converted)): ~10 nM
Log2 PTM response (GEM+ATRi vs. GEM) (PHF14-pS294): -1.3
Log2 PTM response (GEM+ATRi vs. GEM) (PPM1G-pS201): -1.3
PTM response (norm. to 1 µM GEM) (source data 4B (p-site not named), 1 µM GEM + ATRi 1 nM): 1.21
PTM response (norm. to 1 µM GEM) (source data 4B (p-site not named), 1 µM GEM + ATRi 3 nM): 1.02
PTM response (norm. to 1 µM GEM) (source data 4B (p-site not named), 1 µM GEM + ATRi 30 nM): 0.49
PTM response (norm. to 1 µM GEM) (source data 4B (p-site not named), 1 µM GEM + ATRi 100 nM): 0.36
PTM response (norm. to 1 µM GEM) (source data 5B (p-site not named), 1 µM GEM + ATRi 1 nM): 1.19
PTM response (norm. to 1 µM GEM) (source data 5B (p-site not named), 1 µM GEM + ATRi 10 nM): 0.52
PTM response (norm. to 1 µM GEM) (source data 5B (p-site not named), 1 µM GEM + ATRi 100 nM): 0.14
PTM response (norm. to 1 µM GEM) (source data 5B (p-site not named), 1 µM GEM + ATRi 300 nM): 0.12
PTM response (norm. to 1 µM GEM) (source data 5B (p-site not named), 1 µM GEM + ATRi 1000 nM): 0.14
PTM response (norm. to 1 µM GEM) (source data 5B (p-site not named), 1 µM GEM + ATRi 3000 nM): 0.12
PTM response (norm. to 1 µM GEM) (source data 5B (p-site not named), 1 µM GEM + ATRi 10000 nM): 0.13
